Broadly, the IC50 is the concentration that inhibits the measured activity by half. Read a high IC50 as lower potency.

This passage reports IC50 results from ChEMBL document CHEMBL1125675, “Synthesis and in vitro biological activity of new deaza analogues of folic acid, aminopterin, and methotrexate with an L-ornithine side chain” (J Med Chem, 1991).

The structures appear in SMILES notation.

The target of this test is T1, Dihydrofolate reductase (Homo sapiens, UniProt P00374).
T1 sequence (P00374 whole entry): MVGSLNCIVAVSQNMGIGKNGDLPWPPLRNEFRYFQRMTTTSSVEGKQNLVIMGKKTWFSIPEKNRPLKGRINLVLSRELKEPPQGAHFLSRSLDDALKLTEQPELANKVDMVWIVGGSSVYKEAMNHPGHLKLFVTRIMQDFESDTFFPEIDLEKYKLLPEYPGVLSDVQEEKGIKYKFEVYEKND
Put plainly: Inhibition of dihydrofolate reductase(DHFR) enzyme from human leukemic lymphoblasts. Put shortly: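 Spectrophotometric read-out at 340 nm. Enzyme was DHFR purified from human leukemic lymphoblasts (WI-L2/M4).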

With `NCCCC(NC(=O)c1ccc(NCc2cnc3nc(N)nc(N)c3n2)cc1)C(=O)O` (stereo unspecified), the concentration for half-maximal inhibition (IC50) turned out to be 72 nM.
